Measurements as given in ChEMBL document CHEMBL2407019, “Protective activity of (1S,2E,4R,6R,7E,11E)-2,7,11-cembratriene-4,6-diol analogues against diisopropylfluorophosphate neurotoxicity: preliminary structure-activity relationship and pharmacophore modeling” (2013).

Tests used:
Hippocampus [1] = test: Toxicity in Sprague-Dawley rat hippocampal slice at 10 uM measured after 1 hr by electrophysiological assay; conditions: in vivo, strain Sprague-Dawley
Hippocampus [2] = test: Neuroprotective activity in Sprague-Dawley rat hippocampal slice assessed as reversal of DFP-induced damage at 10 uM measured after 2 hrs by electrophysiological assay; conditions: strain Sprague-Dawley

## C/C1=C\CC/C(CO)=C/[C@H](O)C[C@@](C)(O)/C=C/[C@H](C(C)C)CC1
Hippocampus [1]
  Activity: Toxic
Hippocampus [2]
  Activity: 75%
